Earlier results in patent US9295653B2, “Controlled agglomeration” (Veloxis Pharmaceuticals A/S, priority 2001, dated 2016).
Only a part of the results on these compounds is given; other tests are left out.

Details: Table 1, Poorly-Soluble Drug Candidates; descriptive term

For CCC(=O)N(c1ccccc1)C1CCN(CCc2ccccc2)CC1, which “Solubility In Water” value is on record?
Its value is “Sparingly”.
